Experimental data: publication PMC6838339, “Discovery of Novel Multi-target Inhibitor of angiotensin type 1 receptor and neprilysin inhibitors from Traditional Chinese Medicine” (Scientific Reports, 2019)

Molecular target: T1, Angiotensin II type-1 receptor (AT1) (Homo sapiens, UniProt P30556)
T1 construct: gene AGTR1
Assay: FLIPR calcium influx assay in HEK293/Ga15/AT1 cells, angiotensin II stimulated
Assay type: cell-based

CCCc1nc2c(C)cc(-c3nc4ccccc4n3C)cc2n1Cc1ccc(-c2ccccc2C(=O)O)cc1 [telmisartan]
IC50: 1.83 nM
